In US5212286A, “Atrial Natriuretic/vasodilator peptide compounds” (Scios Nova Inc., priority 1986, dated 1993):

What was measured:
[1] = test system: precontracted rabbit or rat aortic preparations; conditions: for IC50: thoracic aortic segments precontracted with histamine or norepinephrine, read-out: IC50 (concentration producing half-maximal relaxation of the precontracted tissue)
Protocol: Synthetic ANVP compounds were compared to partially purified (gel filtration step) and purified (HPLC) native ANVP compounds (See FIGS. 3A-D) for their ability to relax histamine-contracted aortic rings. Rings were suspended in 10 ml aerated Kreb's buffer under 1.5 gm passive tension. Rings were precontracted with 5 X 10^-6 M histamine, washed and allowed to return to baseline tension, as described ([…]., supra). Increasing amounts of purified or synthetic ANVP compounds were then added in cumulative fashion. […] The relaxation effects of various ANVP compounds on precontracted rabbit or rat aortic preparations are shown in Table III. | Thoracic aortic segments were precontracted with histamine or | norepinephrine as previously described. Various doses of ANVP compounds | were then added and relaxation of the precontracted state was monitored. | Data are expressed as the concentration of each peptide required to | produce a halfmaximal relaxation of the precontracted tissue (IC50).

[2] = test system: ANVP receptor sites on cultured bovine vascular smooth muscle cells; experiment: Displacement of specific [125I]rANVP(126-150) binding on cultured smooth muscle cells; conditions: concentration of half-maximal displacement
Excerpt: Specific and saturable binding is a necessary component of a hormone/receptor interaction.
Various concentrations of the peptides described were examined for […]

[3] = test system: intact rats; experiment: Natriuretic and diuretic effects in intact rats (bolus injection); type: in vivo, rat
Protocol: Synthetic ANVP compounds […] hANVP(127-151) were also found to be natriuretic in the intact rat. These compounds were administered as a bolus injection to Inactin anesthetized rats (100 mg/kg, average weight 399 g) which were maintained on a constant infusion of normal saline at 2.2 ml/hr. […] Data are expressed as mean±SE.

[4] = test system: isolated rat kidney; experiment: Renal function in the isolated perfused rat kidney; conditions: dose 1 μg; experimental period E; mean of 3-8 experiments

Row | Compound | IC50 [1] [nM] | Ki ([2]; Series B smooth muscle cells) [nM] | diuresis and natriuresis in intact rats, in words ([3]; Table VII doses) | Peak Na+ Excr. ([3]; dose 3670 pmol/kg) [µmol/min] | Peak Urine Vol. ([3]; dose 3670 pmol/kg) [µL/min] | .V (urine flow rate) [4] [µL/min] | GFR [4] [mL/min] | UNa.V (urinary sodium excretion rate) [4] [μEq/min] | vasorelaxant potency in words ([1]; precontracted vascular preparations) | Ki ([2]; Series A smooth muscle cells) [nM]
1 | CC[C@H](C)[C@@H]1NC(=O)[C@H](CCCNC(=N)N)NC(=O)[C@@H](CC(=O)O)NC(=O)[C@H]([C@@H](C)CC)NC(=O)[C@H](CCCNC(=N)N)NC(=O)CNC(=O)CNC(=O)[C@H](Cc2ccccc2)NC(=O)[C@@H](NC(=O)[C@H](CO)NC(=O)[C@H](CO)NC(=O)[C@@H](N)CCCNC(=N)N)CSSC[C@@H](C(=O)N[C@@H](CC(N)=O)C(=O)N[C@@H](CO)C(=O)N[C@@H](Cc2ccccc2)C(=O)N[C@@H](CCCNC(=N)N)C(=O)N[C@@H](Cc2ccc(O)cc2)C(=O)O)NC(=O)CNC(=O)[C@H](CC(C)C)NC(=O)CNC(=O)[C@H](CO)NC(=O)[C@H](CCC(N)=O)NC(=O)[C@H](C)NC(=O)CNC1=O [[D-Asp^135]rANVP(126-150), H-Arg-Ser-Ser-Cys-Phe-Gly-Gly-Arg-Ile-[D-Asp]-Arg-Ile-Gly-Ala-Gln-Ser-Gly-Leu-Gly-Cys-Asn-Ser-Phe-Arg-Tyr-OH] | 28 | > 40 | exceptions | 0.3 ± 0.1 | 8.5 ± 0.5 | – | – | – | – | –
2 | CC[C@H](C)[C@@H]1NC(=O)[C@H](CCCNC(=N)N)NC(=O)[C@H](CC(=O)O)NC(=O)[C@H]([C@@H](C)CC)NC(=O)[C@H](CCCNC(=N)N)NC(=O)CNC(=O)CNC(=O)[C@H](Cc2ccccc2)NC(=O)[C@@H](NC(=O)[C@H](CO)NC(=O)[C@H](CO)NC(=O)[C@@H](N)CCCNC(=N)N)CSSC[C@@H](C(=O)N[C@@H](CC(N)=O)C(=O)N[C@@H](CO)C(=O)N[C@@H](Cc2ccccc2)C(=O)N[C@@H](CCCNC(=N)N)C(=O)N[C@@H](Cc2ccc(O)cc2)C(=O)O)NC(=O)CNC(=O)[C@H](CC(C)C)NC(=O)CNC(=O)[C@H](CO)NC(=O)[C@@H](CCC(N)=O)NC(=O)[C@H](C)NC(=O)CNC1=O [[D-Gln^140]rANVP(126-150), H-Arg-Ser-Ser-Cys-Phe-Gly-Gly-Arg-Ile-Gly-Ala-[D-Gln]-Ser-Gly-Leu-Gly-Cys-Asn-Ser-Phe-Arg-tyr-OH] | 1.25 | – | – | – | – | 183.4 | 1.01 | 14.52 | most potent | 20
3 | CC[C@H](C)[C@@H]1NC(=O)[C@H](CCCNC(=N)N)NC(=O)[C@H](CC(=O)O)NC(=O)[C@H]([C@@H](C)CC)NC(=O)[C@H](CCCNC(=N)N)NC(=O)CNC(=O)CNC(=O)[C@H](Cc2ccccc2)NC(=O)[C@@H](NC(=O)[C@H](CO)NC(=O)[C@H](CO)NC(=O)[C@@H](N)CCCNC(=N)N)CSSC[C@@H](C(=O)N[C@@H](CC(N)=O)C(=O)N[C@@H](CO)C(=O)N[C@@H](Cc2ccccc2)C(=O)N[C@@H](CCCNC(=N)N)C(=O)N[C@@H](Cc2ccc(O)cc2)C(=O)O)NC(=O)CNC(=O)[C@H](CC(C)C)NC(=O)CNC(=O)[C@@H](CO)NC(=O)[C@H](CCC(N)=O)NC(=O)[C@H](C)NC(=O)CNC1=O [[D-Ser^141]rANVP(126-150), H-Arg-Ser-Ser-Cys-Phe-Gly-Gly-Arg-Ile-Asp-Arg-Ile-Gly-Ala-Gln-[D-Ser]-Gly-Leu-Gly-Cys-Asn-Ser-Phe-Arg-Tyr-OH] | 11 | – | – | – | – | 29.2 | 0.51 | 2.10 | – | 40
